Measured values reported in ChEMBL document CHEMBL4419168, “Substituted n-([1,1''-biphenyl]-3-yl)-[1,1''-biphenyl]-3-carboxamide analogs as inhibitors for beta-catenin/b-cell lymphoma 9 interactions” (2018).

By UniProt entry, the sequences of proteins in these tests, tags left out. Where a name states a change or a piece, a line headed by the entry shows the natural chain unless it says otherwise.
UniProt P35222: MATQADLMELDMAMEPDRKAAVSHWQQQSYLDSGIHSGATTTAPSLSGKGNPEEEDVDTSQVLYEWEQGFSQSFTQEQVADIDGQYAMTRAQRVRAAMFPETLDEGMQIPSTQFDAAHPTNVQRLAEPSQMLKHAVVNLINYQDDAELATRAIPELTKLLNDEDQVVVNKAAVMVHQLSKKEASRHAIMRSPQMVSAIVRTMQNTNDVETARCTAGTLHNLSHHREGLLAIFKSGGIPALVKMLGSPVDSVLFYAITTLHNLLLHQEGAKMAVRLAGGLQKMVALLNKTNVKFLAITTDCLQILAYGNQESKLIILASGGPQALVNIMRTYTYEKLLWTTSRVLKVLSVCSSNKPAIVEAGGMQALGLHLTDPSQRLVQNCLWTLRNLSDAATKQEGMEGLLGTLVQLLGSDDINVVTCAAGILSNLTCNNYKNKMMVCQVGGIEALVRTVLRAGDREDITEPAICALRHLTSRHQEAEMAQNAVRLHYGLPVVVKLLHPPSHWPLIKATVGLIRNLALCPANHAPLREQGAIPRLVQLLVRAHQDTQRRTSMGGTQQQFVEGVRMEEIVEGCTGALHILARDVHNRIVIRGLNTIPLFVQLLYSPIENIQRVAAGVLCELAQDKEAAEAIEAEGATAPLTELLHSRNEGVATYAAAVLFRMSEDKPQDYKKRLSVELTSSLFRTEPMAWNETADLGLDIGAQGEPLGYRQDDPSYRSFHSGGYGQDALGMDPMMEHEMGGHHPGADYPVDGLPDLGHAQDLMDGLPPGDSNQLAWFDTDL
UniProt O00512: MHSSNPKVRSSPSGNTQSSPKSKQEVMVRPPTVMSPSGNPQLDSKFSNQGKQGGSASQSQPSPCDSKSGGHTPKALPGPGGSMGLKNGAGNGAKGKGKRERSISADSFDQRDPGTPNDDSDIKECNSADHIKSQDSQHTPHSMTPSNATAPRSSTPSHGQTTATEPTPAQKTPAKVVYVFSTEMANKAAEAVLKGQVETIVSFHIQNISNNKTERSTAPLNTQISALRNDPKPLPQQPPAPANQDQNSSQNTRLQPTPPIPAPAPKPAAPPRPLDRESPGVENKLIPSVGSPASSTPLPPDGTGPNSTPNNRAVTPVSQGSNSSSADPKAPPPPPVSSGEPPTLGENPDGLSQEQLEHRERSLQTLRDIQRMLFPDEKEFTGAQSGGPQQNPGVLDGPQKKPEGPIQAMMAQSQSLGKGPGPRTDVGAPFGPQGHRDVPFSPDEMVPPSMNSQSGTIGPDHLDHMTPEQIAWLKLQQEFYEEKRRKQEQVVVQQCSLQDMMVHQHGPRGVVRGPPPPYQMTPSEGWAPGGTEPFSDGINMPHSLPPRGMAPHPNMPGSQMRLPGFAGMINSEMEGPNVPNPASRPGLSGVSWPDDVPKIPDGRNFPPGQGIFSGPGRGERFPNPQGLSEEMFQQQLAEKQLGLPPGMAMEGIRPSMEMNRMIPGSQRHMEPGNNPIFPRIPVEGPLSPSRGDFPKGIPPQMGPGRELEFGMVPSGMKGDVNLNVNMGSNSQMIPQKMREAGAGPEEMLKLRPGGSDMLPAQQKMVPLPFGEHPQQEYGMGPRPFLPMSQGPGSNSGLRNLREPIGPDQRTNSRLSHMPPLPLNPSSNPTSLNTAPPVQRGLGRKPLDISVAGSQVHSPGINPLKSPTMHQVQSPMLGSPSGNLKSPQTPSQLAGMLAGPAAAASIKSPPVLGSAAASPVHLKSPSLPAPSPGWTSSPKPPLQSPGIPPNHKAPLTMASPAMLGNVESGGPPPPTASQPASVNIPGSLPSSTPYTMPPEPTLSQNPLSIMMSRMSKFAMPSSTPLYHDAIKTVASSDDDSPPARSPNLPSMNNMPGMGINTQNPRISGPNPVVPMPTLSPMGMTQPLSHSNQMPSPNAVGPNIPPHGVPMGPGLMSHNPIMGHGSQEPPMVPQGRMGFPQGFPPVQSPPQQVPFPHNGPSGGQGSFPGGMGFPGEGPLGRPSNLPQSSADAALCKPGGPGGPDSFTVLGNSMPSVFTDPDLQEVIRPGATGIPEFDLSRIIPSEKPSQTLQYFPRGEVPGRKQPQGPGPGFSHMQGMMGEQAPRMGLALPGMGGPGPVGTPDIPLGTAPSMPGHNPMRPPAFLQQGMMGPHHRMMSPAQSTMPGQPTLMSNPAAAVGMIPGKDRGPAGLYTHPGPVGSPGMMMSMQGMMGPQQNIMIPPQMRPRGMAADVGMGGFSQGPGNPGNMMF

Key:
[1] = biological target: T1, beta-catenin-B-cell lymphoma 9 protein complex (Homo sapiens) (UniProt P35222+O00512); experiment: Inhibition of beta-catenin/BCL9 in human SW480 cells assessed as LEF1 mRNA expression at 2 uM by quantitative real-time PCR analysis relative to control; type: cell-based
[2] = biological target: T1, beta-catenin-B-cell lymphoma 9 protein complex (Homo sapiens); experiment: Inhibition of beta-catenin/BCL9 in human SW480 cells assessed as LEF1 mRNA expression at 1 uM by quantitative real-time PCR analysis relative to control; type: cell-based
[3] = biological target: T1, beta-catenin-B-cell lymphoma 9 protein complex (Homo sapiens); experiment: Inhibition of beta-catenin/BCL9 in human SW480 cells assessed as LGR5 mRNA expression by quantitative real-time PCR analysis based cell based assay
[4] = biological target: T1, beta-catenin-B-cell lymphoma 9 protein complex (Homo sapiens); experiment: Inhibition of beta-catenin/BCL9 in human HCT116 cells by co-immunoprecipitation assay; type: cell-based
[5] = biological target: T1, beta-catenin-B-cell lymphoma 9 protein complex (Homo sapiens); experiment: Inhibition of beta-catenin/BCL9 in human SW480 cells assessed as LEF1 mRNA expression by quantitative real-time PCR analysis based cell based assay
[6] = biological target: T1, beta-catenin-B-cell lymphoma 9 protein complex (Homo sapiens); experiment: Inhibition of beta-catenin/BCL9 in human MDA-MB-231 cells assessed as Axin2 mRNA expression at 4 uM by quantitative real-time PCR analysis based cell based assay relative to control
[7] = biological target: T1, beta-catenin-B-cell lymphoma 9 protein complex (Homo sapiens); experiment: Inhibition of beta-catenin/BCL9 in human MDA-MB-231 cells assessed as LEF1 mRNA expression by quantitative real-time PCR analysis based cell based assay
[8] = biological target: T1, beta-catenin-B-cell lymphoma 9 protein complex (Homo sapiens); experiment: Inhibition of beta-catenin/BCL9 in human MDA-MB-231 cells assessed as LGR5 mRNA expression at 4 uM by quantitative real-time PCR analysis based cell based assay relative to control
[9] = biological target: T1, beta-catenin-B-cell lymphoma 9 protein complex (Homo sapiens); experiment: Inhibition of beta-catenin/BCL9 in human SW480 cells assessed as Axin2 mRNA expression at 1 uM by quantitative real-time PCR analysis relative to control; type: cell-based
[10] = biological target: T1, beta-catenin-B-cell lymphoma 9 protein complex (Homo sapiens); experiment: Inhibition of beta-catenin/BCL9 in human MDA-MB-231 cells assessed as LGR5 mRNA expression at 2 uM by quantitative real-time PCR analysis based cell based assay relative to control
[11] = biological target: T1, beta-catenin-B-cell lymphoma 9 protein complex (Homo sapiens); experiment: Inhibition of beta-catenin/BCL9 in human SW480 cells assessed as LGR5 mRNA expression at 2 uM by quantitative real-time PCR analysis relative to control; type: cell-based
[12] = biological target: T1, beta-catenin-B-cell lymphoma 9 protein complex (Homo sapiens); experiment: Inhibition of beta-catenin/BCL9 in human SW480 cells assessed as cyclin D1 mRNA expression at 4 uM by quantitative real-time PCR analysis relative to control; type: cell-based
[13] = biological target: T1, beta-catenin-B-cell lymphoma 9 protein complex (Homo sapiens); experiment: Inhibition of beta-catenin/BCL9 in human MDA-MB-231 cells assessed as cyclin D1 mRNA expression at 4 uM by quantitative real-time PCR analysis based cell based assay relative to control
[14] = biological target: T1, beta-catenin-B-cell lymphoma 9 protein complex (Homo sapiens); experiment: Inhibition of beta-catenin/BCL9 in human SW480 cells assessed as LGR5 mRNA expression at 4 uM by quantitative real-time PCR analysis relative to control; type: cell-based
Homo sapiens = organism: Homo sapiens; experiment: Selectivity ratio of Kd for binding affinity to beta-catenin D145A/E155A mutant (unknown origin) expressed in Escherichia coli BL21 DE3 by ITC method to Kd for binding affinity to C-terminal 6x-histidine tagged wild type beta-catenin (138 to 686 residues) (unknown origin) expressed in Escherichia coli BL21 DE3 by ITC method
[15] = biological target: T1, beta-catenin-B-cell lymphoma 9 protein complex (Homo sapiens); experiment: Inhibition of beta-catenin/BCL9 in human MDA-MB-231 cells assessed as cyclin D1 mRNA expression at 1 uM by quantitative real-time PCR analysis based cell based assay relative to control
[16] = biological target: T1, beta-catenin-B-cell lymphoma 9 protein complex (Homo sapiens); experiment: Inhibition of beta-catenin/BCL9 in human MDA-MB-231 cells assessed as LGR5 mRNA expression by quantitative real-time PCR analysis based cell based assay
[17] = biological target: T1, beta-catenin-B-cell lymphoma 9 protein complex (Homo sapiens); experiment: Inhibition of beta-catenin/BCL9 in human MDA-MB-231 cells assessed as cyclin D1 mRNA expression at 2 uM by quantitative real-time PCR analysis based cell based assay relative to control
[18] = biological target: T1, beta-catenin-B-cell lymphoma 9 protein complex (Homo sapiens); experiment: Inhibition of beta-catenin/BCL9 in human SW480 cells assessed as LGR5 mRNA expression at 1 uM by quantitative real-time PCR analysis relative to control; type: cell-based
[19] = biological target: T1, beta-catenin-B-cell lymphoma 9 protein complex (Homo sapiens); experiment: Inhibition of beta-catenin/BCL9 in human SW480 cells assessed as Axin2 mRNA expression at 2 uM by quantitative real-time PCR analysis relative to control; type: cell-based
[20] = biological target: T1, beta-catenin-B-cell lymphoma 9 protein complex (Homo sapiens); experiment: Inhibition of beta-catenin/BCL9 in human SW480 cells assessed as cyclin D1 mRNA expression at 2 uM by quantitative real-time PCR analysis relative to control; type: cell-based
[21] = biological target: T1, beta-catenin-B-cell lymphoma 9 protein complex (Homo sapiens); experiment: Inhibition of beta-catenin/BCL9 in human MDA-MB-231 cells assessed as cyclin D1 mRNA expression by quantitative real-time PCR analysis based cell based assay
[22] = biological target: T1, beta-catenin-B-cell lymphoma 9 protein complex (Homo sapiens); experiment: Inhibition of beta-catenin/BCL9 in human MDA-MB-231 cells assessed as LGR5 mRNA expression at 1 uM by quantitative real-time PCR analysis based cell based assay relative to control
[23] = biological target: T1, beta-catenin-B-cell lymphoma 9 protein complex (Homo sapiens); experiment: Inhibition of beta-catenin/BCL9 in human MDA-MB-231 cells assessed as LEF1 mRNA expression at 2 uM by quantitative real-time PCR analysis based cell based assay relative to control
[24] = biological target: T1, beta-catenin-B-cell lymphoma 9 protein complex (Homo sapiens); experiment: Inhibition of beta-catenin/BCL9 in human SW480 cells assessed as Axin2 mRNA expression at 4 uM by quantitative real-time PCR analysis relative to control; type: cell-based
[25] = biological target: T1, beta-catenin-B-cell lymphoma 9 protein complex (Homo sapiens); experiment: Inhibition of beta-catenin/BCL9 in human SW480 cells assessed as cyclin D1 mRNA expression by quantitative real-time PCR analysis based cell based assay
[26] = biological target: T1, beta-catenin-B-cell lymphoma 9 protein complex (Homo sapiens); experiment: Inhibition of beta-catenin/BCL9 in human MDA-MB-231 cells assessed as Axin2 mRNA expression by quantitative real-time PCR analysis based cell based assay
[27] = biological target: T1, beta-catenin-B-cell lymphoma 9 protein complex (Homo sapiens); experiment: Inhibition of beta-catenin/BCL9 in human SW480 cells assessed as LEF1 mRNA expression at 4 uM by quantitative real-time PCR analysis relative to control; type: cell-based
[28] = biological target: T1, beta-catenin-B-cell lymphoma 9 protein complex (Homo sapiens); experiment: Inhibition of beta-catenin/BCL9 in human MDA-MB-231 cells assessed as Axin2 mRNA expression at 1 uM by quantitative real-time PCR analysis based cell based assay relative to control
[29] = biological target: T1, beta-catenin-B-cell lymphoma 9 protein complex (Homo sapiens); experiment: Inhibition of beta-catenin/BCL9 in human MDA-MB-231 cells assessed as LEF1 mRNA expression at 4 uM by quantitative real-time PCR analysis based cell based assay relative to control
[30] = biological target: T1, beta-catenin-B-cell lymphoma 9 protein complex (Homo sapiens); experiment: Inhibition of beta-catenin/BCL9 in human SW480 cells assessed as cyclin D1 mRNA expression at 1 uM by quantitative real-time PCR analysis relative to control; type: cell-based
[31] = biological target: T1, beta-catenin-B-cell lymphoma 9 protein complex (Homo sapiens); experiment: Inhibition of beta-catenin/BCL9 in human SW480 cells assessed as Axin2 mRNA expression by quantitative real-time PCR analysis based cell based assay
[32] = biological target: T1, beta-catenin-B-cell lymphoma 9 protein complex (Homo sapiens); experiment: Inhibition of beta-catenin/BCL9 in human MDA-MB-231 cells assessed as LEF1 mRNA expression at 1 uM by quantitative real-time PCR analysis based cell based assay relative to control
[33] = biological target: T1, beta-catenin-B-cell lymphoma 9 protein complex (Homo sapiens); experiment: Inhibition of beta-catenin/BCL9 in human MDA-MB-231 cells assessed as Axin2 mRNA expression at 2 uM by quantitative real-time PCR analysis based cell based assay relative to control

For `O=C(Nc1ccc(O[C@H]2CCNC2)c(-c2ccc(F)cc2)c1)c1ccc(O[C@H]2CCNC2)c(-c2ccc(F)c(F)c2)c1`, the fold change (FC) [1] was 0.77, the fold change (FC) [2] was 0.94 and the inhibition [3] was “Dose-dependent effect”. For the same molecule, the inhibition [4] was “Dose-dependent effect”, the inhibition [5] was “Dose-dependent effect” and the fold change (FC) [6] was 0.36. The inhibition [7] was “Dose-dependent effect”, the fold change (FC) [8] was 0.16 and the fold change (FC) [9] was 0.7. It also gave a fold change (FC) [10] of 0.42, a fold change (FC) [11] of 0.44 and a fold change (FC) [12] of 0.27. For the same molecule, the fold change (FC) [13] was 0.34, the fold change (FC) [14] was 0.28 and the Ratio (Homo sapiens) was 9.6. The fold change (FC) [15] was 0.75, the inhibition [16] was “Dose-dependent effect” and the fold change (FC) [17] was 0.55. The fold change (FC) [18] was 0.73, the fold change (FC) [19] was 0.39 and the fold change (FC) [20] was 0.42. For the same molecule, the inhibition [21] was “Dose-dependent effect”, the fold change (FC) [22] was 0.69 and the fold change (FC) [23] was 0.47. The fold change (FC) [24] was 0.23, the inhibition [25] was “Dose-dependent effect” and the inhibition [26] was “Dose-dependent effect”. The fold change (FC) [27] was 0.65, the fold change (FC) [28] was 0.7 and the fold change (FC) [29] was 0.36. For the same molecule, the fold change (FC) [30] was 0.65, the inhibition [31] was “Dose-dependent effect” and the fold change (FC) [32] was 0.69. The fold change (FC) [33] was 0.54.
